From patent US10604555B2, “GIP derivatives and uses thereof” (priority 2018, dated 2020)

Sequences of proteins named here, by UniProt entry; tags and fusion partners are left off. Residues count along the entry.
UniProt P43220, 24-463: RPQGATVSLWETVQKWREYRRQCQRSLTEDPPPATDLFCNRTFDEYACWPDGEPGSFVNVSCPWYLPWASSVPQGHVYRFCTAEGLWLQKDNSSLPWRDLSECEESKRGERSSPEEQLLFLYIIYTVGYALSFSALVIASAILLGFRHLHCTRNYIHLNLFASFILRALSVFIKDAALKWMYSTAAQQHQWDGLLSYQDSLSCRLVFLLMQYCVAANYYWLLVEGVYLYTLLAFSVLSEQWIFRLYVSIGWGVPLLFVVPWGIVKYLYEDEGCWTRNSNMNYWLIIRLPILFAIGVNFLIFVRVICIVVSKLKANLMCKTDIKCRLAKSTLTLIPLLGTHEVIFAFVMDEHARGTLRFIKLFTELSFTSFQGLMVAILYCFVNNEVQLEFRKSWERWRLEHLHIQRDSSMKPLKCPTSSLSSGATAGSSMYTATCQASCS

Key:
[1] = biological target: T1, human GLP-1 receptor (Homo sapiens, UniProt P43220); experiment: In vitro potency (CRE luciferase; whole cells), BHK CRE luc2P hGLP-1R; type: cell-based; details: read-out: hGLP-1-R, CRE Luc EC50 (pM), assay performed in presence of 1% HSA, 1% HSA (values marked *)
T1 construct: expressed in transfected cells; host or cells: BHK (parent line BHKTS13), BHK CRE luc2P hGLP-1R clone #6
Description: In Vitro Potency (CRE Luciferase; Whole Cells)
The in vitro potency is the measure of human GIP, GLP-1 or glucagon receptor activation, respectively, in a whole cell assay.
In vitro potency was determined by measuring the response of the human GIP, GLP-1 or glucagon receptor in a reporter gene assay in individual cell lines. […] When the respective receptor is activated it results in the production of cAMP, which in turn results in the luciferase protein being expressed. When assay incubation is completed the luciferase substrate (luciferin) is added and the enzyme converts luciferin to oxyluciferin to produce bioluminescence. The luminescence is measured as the readout for the assay.
The cells were derived from a clone containing the CRE luciferase element and were established by further transfection with the respective receptor to obtain the current clone.
The cells were cultured at 5% CO2 in Cell Culture Medium. They were aliquoted and stored in liquid nitrogen. The cells were kept in passage and were seeded out the day before each assay. […]
4) Stocks of the test compounds and reference compounds were diluted to a concentration of 0.2 μM in Assay Buffer. […] 11) Each assay plate was read in a microtiter plate reader. […]
The data from the microtiter plate reader was transferred to GraphPad Prism software. […]
A minimum of two replicates was measured for each sample. […]

[2] = Pharmacokinetic study in minipigs, terminal half-life after i.v. administration; type: in vivo, Göttingen minipigs; details: usually 5 nmol/kg
[3] = ThT fibrillation assay (physical stability); type: physicochemical; details: 250 μM, pH 7.4, 37° C., 45 hours of incubation
Description: The Thioflavin T assay was performed as outlined in Schlein (2017), AAPS J, 19(2), 397-408.
Low physical stability of a peptide may lead to amyloid fibril formation, which is observed as well-ordered, thread-like macromolecular structures in the sample, which eventually may lead to gel formation. This has traditionally been measured by visual inspection of the sample. However, that kind of measurement is very cumbersome and depending on the observer. Therefore, the application of a small molecule indicator probe is much more advantageous. Thioflavin T (ThT) is such a probe and has a distinct fluorescence signature when binding to fibrils [Naiki et al. (1989) Anal. Biochem. 177, 244-249; LeVine (1999) Methods. Enzymol. 309, 274-284].
The time course for fibril formation can be described by a sigmoidal curve with the following expression [Nielsen et al. (2001) Biochemistry 40, 6036-6046]:
Here, F is the ThT fluorescence at the time t. The constant t0 is the time needed to reach 50% of maximum fluorescence. The two important parameters describing fibril formation are the lag-time calculated by t0−2τ and the apparent rate constant kapp 1/τ.
Few of those intermediates nucleate to form a template onto which further intermediates may assembly and the fibrillation proceeds. The lag-time corresponds to the interval in which the critical mass of nucleus is built up and the apparent rate constant is the rate with which the fibril itself is formed.
Samples are prepared freshly before each assay. […]
Incubation, shaking and measurement of the ThT fluorescence emission were done in a Fluoroskan Ascent FL fluorescence platereader (Thermo Labsystems). […] Fluorescence measurement was done using excitation through a 444 nm filter and measurement of emission through a 485 nm filter. […]
Each run was initiated by incubating the plate at the assay temperature for 10 min. The plate was measured every 20 minutes for a desired period of time. […]
The data set may be fitted to Eq. (1). […] No increase in ThT fluorescence during the duration of the assay was reported as a lag time of 45 hours.

[4] = Chemical stability: HMWP formation by SEC-MS; type: physicochemical; details: 37° C., 4 weeks, 250 μM, pH 7.4
Description: The aim of this study is to determine the chemical stability of GIP derivative compositions. As a measure of stability of the GIP derivative composition, the formation of high molecular weight peptide formation (% HMWP) as a function of time was analysed by size-exclusion chromatography (SEC-MS). Further, the purity loss of the GIP derivative compositions was measured by LCMS. Samples for chemical stability assays were freshly prepared before each assay. […] The pH of the sample was adjusted to the desired value using appropriate amounts of concentrated NaOH and HCl. […] Formation of covalent oligomers (HMWPs) was analysed and identified by a SEC-MS method. […] The LC system was coupled to both a TUV detector operated at 215 nm, 10 Hz and a high resolution QToF mass spectrometer from Waters (Synapt G2S) operated in positive ion mode and m/z range of 100 to 4000 with normal resolution setting. Lock mass correction against Leu-Enkephalin was done every 31 sec. Spectra were processed in MassLynx version 4.1 and MaxEnt deconvoluted.

[5] = Chemical stability: purity loss by LCMS; type: physicochemical; details: 37° C., 4 weeks, 250 μM, pH 7.4
Description: The aim of this study is to determine the chemical stability of GIP derivative compositions. As a measure of stability of the GIP derivative composition, the formation of high molecular weight peptide formation (% HMWP) as a function of time was analysed by size-exclusion chromatography (SEC-MS). Further, the purity loss of the GIP derivative compositions was measured by LCMS. Samples for chemical stability assays were freshly prepared before each assay. […] The pH of the sample was adjusted to the desired value using appropriate amounts of concentrated NaOH and HCl. […] The column oven was kept at 55° C. […] The solvents were pumped from a binary solvent manager system and mixed on the high pressure side in a mixer with a volume of 50 μl. The gradient and flow can be seen in table 4: [table] A Flow-through-needle auto sampler at 8° C. was used to inject 1 μl of each sample. The effluent passed through a tunable UV detector (TUV) tuned to 215 nm. The outlet from the UV detector passed to the electrospray source of the mass spectrometer. The capillary was held at 3 kV and dry nitrogen gas was purged at a flow of 750 I/h and a temperature of 250° C. The source block was kept at 120° C. and the large bore cone was flushed with nitrogen at 50 I/h with standard electrode potentials on the rest of the instrument. The MS was operated in high resolution mode with a nominal resolution of 35000. The ToF analyser was operated in ADC mode with an m/z window from 100-2000.

| Substance | EC50 [1] | t1/2 (hours) harmonic mean [2] | ThT Assay Lag time [3] | HMWP formation (%/month) [4] | Purity loss (%/month) [5] |
| --- | --- | --- | --- | --- | --- |
| N{1}-acetyl,N{Epsilon-24}-[(4S)-4-carboxy-4-[[(4S)-4-carboxy-4-[[(4S)-4-carboxy-4-[[4-[(19-carboxynonadecanoylamino)methyl]cyclohexanecarbonyl]amino]butanoyl]-amino]butanoyl]amino]butanoyl]-[D-Tyr1,Nle14,Arg18,Aib20,Lys24]-hGIP(1-31) [Compound 25] | > 10000 pM | 125 h | >45 h | 0.40 %/month | 2.00 %/month |
| N{1}-acetyl,N{Epsilon-24}-[(4S)-4-carboxy-4-[[(4S)-4-carboxy-4-[[(4S)-4-carboxy-4-[[4-[(19-carboxynonadecanoylamino)methyl]cyclohexanecarbonyl]amino]butanoyl]-amino]butanoyl]amino]butanoyl]-[D-Tyr1,Nle14,Arg18,Glu20,Lys24]-hGIP(1-31) [Compound 23] | – | 119 h | >45 h | 0.40 %/month | 1.60 %/month |
| N{1}-acetyl,N{Epsilon-24}-[(4S)-4-carboxy-4-[[(4S)-4-carboxy-4-[[(4S)-4-carboxy-4-[[(4S)-4-carboxy-4-[[4-[(19-carboxynonadecanoylamino)methyl]cyclohexanecarbonyl]-amino]butanoyl]amino]butanoyl]amino]butanoyl]amino]butanoyl]-[D-Tyr1,Nle14,Arg18,Lys24]-hGIP(1-31) [Compound 30] | – | 99 h | >45 h | 0.10 %/month | 1.14 %/month |
